Assay results from patent US7541466B2, “Tetrahydroisoquinoline derivatives for treating protein trafficking diseases” (Genzyme Corporation, priority 2003, dated 2009).

Sequences of proteins named here, by UniProt entry; tags and fusion partners are left off. A line that says so, or that is headed by a name, gives the form on record, which may keep a tag or linker.
UniProt P13569, with tags, fused parts or gaps DEL508-508: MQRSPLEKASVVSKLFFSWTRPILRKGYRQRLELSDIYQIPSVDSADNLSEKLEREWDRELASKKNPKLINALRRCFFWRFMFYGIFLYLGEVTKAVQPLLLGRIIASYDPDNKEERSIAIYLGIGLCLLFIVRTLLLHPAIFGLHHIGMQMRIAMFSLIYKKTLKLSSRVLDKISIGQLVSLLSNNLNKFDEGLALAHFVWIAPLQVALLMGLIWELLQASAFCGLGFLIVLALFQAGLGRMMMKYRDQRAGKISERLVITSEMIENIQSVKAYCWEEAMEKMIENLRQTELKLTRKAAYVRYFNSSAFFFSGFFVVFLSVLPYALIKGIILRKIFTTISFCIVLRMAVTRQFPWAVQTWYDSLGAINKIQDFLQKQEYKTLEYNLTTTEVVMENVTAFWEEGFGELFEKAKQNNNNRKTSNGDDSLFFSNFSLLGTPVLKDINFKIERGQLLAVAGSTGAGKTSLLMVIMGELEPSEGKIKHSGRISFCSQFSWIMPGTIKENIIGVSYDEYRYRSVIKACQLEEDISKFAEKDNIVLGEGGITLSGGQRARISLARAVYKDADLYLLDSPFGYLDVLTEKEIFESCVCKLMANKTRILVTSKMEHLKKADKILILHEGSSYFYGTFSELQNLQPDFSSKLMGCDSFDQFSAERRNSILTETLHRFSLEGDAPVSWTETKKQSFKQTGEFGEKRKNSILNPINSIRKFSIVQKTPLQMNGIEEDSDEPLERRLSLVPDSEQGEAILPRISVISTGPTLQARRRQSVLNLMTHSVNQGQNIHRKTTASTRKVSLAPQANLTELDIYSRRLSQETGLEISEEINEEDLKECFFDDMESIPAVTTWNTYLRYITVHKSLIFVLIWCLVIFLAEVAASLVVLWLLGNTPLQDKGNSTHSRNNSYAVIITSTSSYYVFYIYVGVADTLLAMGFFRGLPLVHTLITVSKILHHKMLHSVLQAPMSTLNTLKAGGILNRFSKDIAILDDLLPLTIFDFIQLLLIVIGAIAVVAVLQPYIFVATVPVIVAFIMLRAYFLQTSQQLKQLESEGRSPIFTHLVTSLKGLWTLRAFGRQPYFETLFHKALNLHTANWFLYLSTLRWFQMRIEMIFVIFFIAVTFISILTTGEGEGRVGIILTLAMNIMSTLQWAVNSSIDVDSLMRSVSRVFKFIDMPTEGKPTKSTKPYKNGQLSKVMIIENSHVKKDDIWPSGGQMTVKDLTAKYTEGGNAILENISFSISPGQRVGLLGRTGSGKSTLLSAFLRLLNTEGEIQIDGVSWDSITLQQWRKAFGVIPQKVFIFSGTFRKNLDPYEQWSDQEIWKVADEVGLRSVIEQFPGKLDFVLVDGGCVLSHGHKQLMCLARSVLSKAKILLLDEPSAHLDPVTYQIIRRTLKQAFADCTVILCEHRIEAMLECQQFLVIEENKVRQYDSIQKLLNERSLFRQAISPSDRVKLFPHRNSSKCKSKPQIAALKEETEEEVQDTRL

Target: ΔF508 CFTR (Homo sapiens, UniProt P13569, DEL508-508)
Experiment: MQAE chloride transport assay in C127 cells expressing ΔF508 CFTR
Format: cell-based, murine
Conditions: for EC50: chloride transport activity, C127 ΔF508 CFTR cells, MQAE; for % of Maximal Response: plateau level in activity at high compound concentration, as a percentage of the low temperature response

Row | Structure (SMILES) | EC50 [nM] | % of Maximal Response [%]
1 | O=C1c2ccccc2-c2ccc(C(=O)N3Cc4ccccc4CC3C(=O)Nc3ccc(Cl)cc3)cc21 (racemic) | 260 | 71
2 | O=C(c1ccccc1)c1cccc(C(=O)N2Cc3ccccc3CC2C(=O)Nc2ccc(Cl)cc2)c1 (racemic) | 250 | 79
3 | CCCCCc1ccc(NC(=O)[C@@H]2Cc3ccccc3CN2C(=O)c2cccc(O[C@H](C)CC)c2)cc1 | 8 | 84
4 | O=C(Nc1ccc(Cl)cc1)C1Cc2ccccc2CN1C(=O)c1cccc(Oc2ccc(Cl)cc2)c1 (racemic) | 340 | 72
